# Values of other authors, collected in PubChem BioAssay AID1811 (Shanghai Institute of Organic Chemistry, 2009).
# The list shows a part of the results. Calls of active or inactive are those of the source. Unless stated, no cut-off for active and inactive is given here.
# Tested on: glutamate receptor 2
# Assay: PubChem AID 1811
# Details: PDB complex binding affinities from literature
smiles,measurement,value
CN1CCc2c(-c3ccc(S(=O)(=O)N(C)C)cc3)cc3c(c2C1)NC(=O)/C3=N/O[C@@H](CCO)C(=O)O,outcome,active
